Molecular target: human enzyme NAMPT (full length) (Homo sapiens, UniProt P43490)
Experiment: NMN fluorescence biochemical assay (stimulation of NMN synthesis by NAMPT)

The chains behind the UniProt entries cited, without tags or fusion partners.
UniProt P43490, whole entry: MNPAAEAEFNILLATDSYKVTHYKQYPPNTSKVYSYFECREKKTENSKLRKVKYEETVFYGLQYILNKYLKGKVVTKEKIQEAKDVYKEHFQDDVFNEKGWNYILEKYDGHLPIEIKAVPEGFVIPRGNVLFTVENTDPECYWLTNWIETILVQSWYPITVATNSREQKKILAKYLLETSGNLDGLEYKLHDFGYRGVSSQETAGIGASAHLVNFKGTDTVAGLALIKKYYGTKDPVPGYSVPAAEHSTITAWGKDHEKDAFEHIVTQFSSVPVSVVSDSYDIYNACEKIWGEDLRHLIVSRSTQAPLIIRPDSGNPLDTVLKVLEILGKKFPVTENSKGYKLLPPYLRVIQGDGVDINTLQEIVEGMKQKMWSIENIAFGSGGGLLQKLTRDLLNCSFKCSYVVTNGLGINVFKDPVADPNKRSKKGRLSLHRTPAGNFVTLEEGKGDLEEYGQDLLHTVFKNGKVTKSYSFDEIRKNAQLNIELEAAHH

Enzymatic Emax (fold change of maximal activation compared to DMSO): C (2≥C) | EC50 (read-out: Enzymatic EC50, NMN fluorescence assay, purified human NAMPT 100 nM, concentration giving half-maximal activation): 500 to 5000 nM
SMILES: O=C1NCC2(CCC(CN3C(=O)c4ccccc4C3Cc3ncccc3Br)CC2)O1 (single isomer, unassigned)
